Screening data as filed in PubChem.
Nrf2 block – inhibitors of Nrf2 signaling; A549 ARE-Fluc reporter, luciferase luminescence, 18-24 h; Potency, µM (series often up to 46 µM), without a hit: at the highest dose activity change, negative = inhibition, actives largely listed as inhibitors; 360,000 compounds, 2.1% hits; also: potency is read from the fitted curve at half-maximal effect; % is scaled to controls: 0 for no effect and ±100 for the full control effect; nearly all actives have a fitted effect of over 60% in size
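Nrf2 function is reported as luminescence of an ARE-controlled luciferase in A549 cells. Compounds were tested at several concentrations, and a CellTiter-Fluor read on the same wells flagged cytotoxicity.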
Nrf2 ARE act – Nrf2 pathway activation; Potency, µM (highest dose often 46.1 µM), without a hit: top-dose activation, usual class: activators; 410,000 compounds, 0.31% hits; AREc32 ARE-luciferase reporter (MCF7-derived line), luminescence, 24 h; also: potency is read from the fitted curve at half-maximal effect; % of control where 0% means no effect; nearly all actives have a fitted effect of over 65% in size
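ARE activation measured as luciferase luminescence (Steady-Glo, 30 min RT) in AREc32_Fluc cells after 24 hr compound exposure at 37 deg C, 5% CO2; cells seeded overnight at 1000/well in OPTI-MEM, 5% FBS.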
ClpP mod – qHTS Assay for Activators of ClpP; ATP-dependent Clp protease proteolytic subunit (Bacillus subtilis (strain 168)), P80244; purified B. subtilis ClpP, FRET peptide cleavage, 20 min; Potency, µM (series often up to 57.5 µM), without a hit: top-dose activity change, negative = active; 340,000 compounds, 1.9% hits; active = well fitted falling curve with a large enough effect; inconclusive = small, poorly fitted or top-dose-only effect; inactive = no such curve, though single readings can be large or run the other way; also: potency is read from the fitted curve at half-maximal effect; the source files actives as falling curves though it sought activators and does not explain the sign; nearly all actives have a fitted effect of over 65% in size
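FRET quenching reversal measured ClpP activation: 10 microg/mL B. subtilis ClpP at pH 8 with the FRET-FV decapeptide, read at 430 nm after 320 nm excitation. The 20-min minus 0-min signal was scaled between DMSO/no-enzyme wells and ADEP (5.8 microM final).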
p53 reactivation – re-activators of mutant p53; H1299 p53-A138V BP100-luciferase reporter, luminescence, 24 h; Potency, µM (titrated, usually from 92.2 µM), for the others: at the top dose activity change, positive = activation, usual class: activators; 320,000 compounds, 0.063% hits; AID 504706; also: potency is read from the fitted curve at half-maximal effect; % of control where 0% means no effect; nearly all actives have a fitted effect of over 45% in size
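H1299 (p53-null), stable ts p53-A138V + BP100-Luc; 1000 cells/well, Opti-MEM/10% FBS; cpd 4 pt, 1:5; 24 h, 37 deg C, 5% CO2; detection reagent 10 min RT; luminescence.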
miR-21 FLuc – miR-21 reporter, rising signal | HeLa miR-21 FLuc reporter, luciferase, 48 h | Potency, µM (top dose mostly 38.3 µM), inactives show at the highest dose reporter change, positive = more light | 340,000 tested, under 10 active | AID 2288; active = well fitted rising curve with a large enough effect; inconclusive = small, poorly fitted or top-dose-only effect; inactive = no such curve, though single readings can be large or run the other way;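 note: % of control where 0% means no effect; miR-21 action dims this reporter so a rising signal means less miR-21 action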
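HeLa cells endogenously expressing miR-21, stably carrying CMV-driven firefly luciferase with a downstream miR-21 binding site, 2000 cells/well. Titrations up to approximately 40 uM, 48 hours; luciferase luminescence read.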
A549 viability – A549 cytotoxicity, counter-screen for Nrf2 inhibitors | A549 ARE-Fluc cells, CellTiter-Fluor viability, 18-24 h | Potency, µM (series often up to 46 µM), for the others: at the top dose activity change, negative = cytotoxicity, usual class: inhibitors | 390,000 compounds, 0.16% hits; also: potency is read from the fitted curve at half-maximal effect; % is scaled to controls: 0 for no effect and ±100 for the full control effect
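Cytotoxicity counterscreen: CellTiter-Fluor fluorescence was measured in A549 ARE_Fluc cells after 18-24 h of compound exposure in a concentration series. The subsequent BugLite luminescent read reports ARE-luciferase activity.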
Numbers without * were called inactive; ? = inconclusive; / = no result given; [ ] = dose if it differs, or a comment. Only some compounds are listed: those with a hit (about 3.7% of all), similar ones and a draw of the others. Unless noted, calls follow the shape of the dose curve; as a rule, active = well fitted curve in the direction sought with a large enough effect; inconclusive = small, poorly fitted or top-dose-only effect, or another doubt; inactive = no such curve, though single readings can be large; an effect the other way counts as inactive or inconclusive.

By UniProt entry, the sequences of proteins in these tests, tags left out.
ATP-dependent Clp protease proteolytic subunit (Bacillus subtilis (strain 168)), P80244, UniProt P80244, whole entry, looked up: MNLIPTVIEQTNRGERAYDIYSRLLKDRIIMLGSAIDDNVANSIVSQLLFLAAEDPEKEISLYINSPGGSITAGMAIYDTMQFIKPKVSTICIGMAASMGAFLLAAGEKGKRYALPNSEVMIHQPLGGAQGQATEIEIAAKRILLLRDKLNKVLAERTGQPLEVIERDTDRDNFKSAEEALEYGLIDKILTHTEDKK

cpd	molecule	Nrf2 block	Nrf2 ARE act	ClpP mod
1	CN(C(=O)COC(=O)c1ccccc1OCC(=O)Nc1ccc(Br)cc1)c1ccccc1	/	/	-6%
2	Cc1cc(C)nc(Sc2ccc(/C=C(\C#N)C(N)=O)o2)n1	1%	7%	28µM*
3	COc1ccc(OCCN2CCN(C(=O)c3ccc(OC)cc3)CC2)cc1	10µM*	0%	/
4	Cc1ccc(C(=O)N2CCC(C(=O)c3ccc(F)cc3)CC2)cc1	?	3%	-1%
5	CCCCCOc1ccc(C(=O)CCN2CCOCC2)cc1	?	20µM*	-8%
6	COc1ccc(OCCN2CCN(C(=O)c3ccc(OC(F)F)c(OC)c3)CC2)cc1	?	1%	/
7	CC(C)Oc1ccc(C(=O)CCN2CCOCC2)cc1	-4%	0%	1%
8	Cc1ccc(C(=O)C2CCN(C(=O)c3ccc(C)cc3)CC2)cc1	23µM*	0%	-2%
9	COc1ccc(C(=O)C2CCN(C(=O)c3ccc(OC)cc3)CC2)cc1	23µM*	0%	-2%
10	CSc1ccc(CCNC(=O)C2CCN(c3nc4ccccc4nc3C(F)(F)F)CC2)cc1	-10%	1%	-3%
11	CCSc1nnc(NC(=O)CSc2nc3c(c(=O)n2C)SC(C)C3)s1 (stereo not given)	?	0%	0%
12	CCSc1nnc(NC(=O)CSc2nc3c(c(=O)n2CC)SC(C)C3)s1 (stereo not given)	18µM*	0%	1%

cpd	p53 reactivation	miR-21 FLuc	A549 viability
1	/	/	/
2	2%	-23%	-2%
3	3%	15%	-13%
4	/	/	4%
5	/	-19%	-6%
6	1%	16%	1%
7	/	/	-1%
8	-2%	6%	-14%
9	0%	23%	-11%
10	/	-2%	6%
11	-16%	-10%	-9%
12	3%	3%	-14%

Another view of part of the listing above:
Values run as follows: Nrf2 block, Nrf2 ARE act, ClpP mod, p53 reactivation, miR-21 FLuc, A549 viability
9) COc1ccc(C(=O)C2CCN(C(=O)c3ccc(OC)cc3)CC2)cc1
  23µM*, 0%, -2%, 0%, 23%, -11%
1) CN(C(=O)COC(=O)c1ccccc1OCC(=O)Nc1ccc(Br)cc1)c1ccccc1
  /, /, -6%, /, /, /

Next section:
cpd	molecule	Nrf2 block	Nrf2 ARE act	ClpP mod
13	COc1ccc(CCN(C)C(=O)CSc2nnc(C3CC3)n2N)cc1OC	0%	0%	25µM*
14	Cc1ccc(C(=O)NCCc2ccccc2)cc1S(=O)(=O)N1CCOCC1	?	3%	0%
15	Cc1ccc(C(=O)NC(C)CCc2ccccc2)cc1S(=O)(=O)N1CCOCC1 (stereo not given)	?	0%	28µM*
16	COc1ccc(S(=O)(=O)Nc2ccc3oc4c(c3c2)C(=O)CC(C)(C)C4)cc1	?	0%	-2%
17	O=C(NCCCNC(=O)c1cncc(O)c1)c1cncc(O)c1	-3%	4%	/
18	CCOC(=O)CCCNC(=O)c1cncc(O)c1	-13%	-1%	32µM*
19	O=C(O)CCCNC(=O)c1cncc(Br)c1	/	0%	28µM*
20	COCc1nn2c(=O)cc(N3CCNCC3)nc2s1	5%	/	/
21	COc1cc(C(=O)CC2(O)C(=O)N(Cc3ccccc3Cl)c3ccccc32)cc(OC)c1OC (stereo not given)	0%	4%	-3%
22	CCOc1ccc(N2CC(c3nc4ccccc4n3CCCOc3ccc(OC)cc3)CC2=O)cc1 (stereo not given)	-9%	0%	1%
23	COc1ccc(CCNC(=O)c2cc3sc(Cl)cc3n2C)cc1OC	26µM*	2%	-6%
24	CCn1c(C(=O)NCc2ccccc2Br)cc2oc3ccccc3c21	?	0%	22µM*

cpd	p53 reactivation	miR-21 FLuc	A549 viability
13	1%	/	-2%
14	?	/	-4%
15	1%	/	7%
16	/	18%	-1%
17	-4%	-2%	6%
18	-1%	-2%	-5%
19	22%	-1%	1%
20	/	/	7%
21	/	?	0%
22	/	11%	-11%
23	-8%	-8%	-3%
24	/	13%	8%

Going on with the list.
cpd	molecule	Nrf2 block	Nrf2 ARE act	ClpP mod
25	Cn1c(C(=O)NCc2ccccc2)cc2oc3ccccc3c21	?	-1%	25µM*
26	COc1ccc(CNC(=O)c2cc3oc4ccccc4c3n2C)cc1OC	?	4%	25µM*
27	Cn1c(C(=O)NCc2ccccc2F)cc2oc3ccccc3c21	?	5%	4%
28	CCn1c(C(=O)NCc2cccc(Br)c2)cc2oc3ccccc3c21	?	0%	4%
29	CCN(CC)c1nn2c(=O)c(C(=O)NCc3ccc(N(C)C)cc3)cnc2s1	-10%	-1%	-8%
30	Cc1c(Cl)cccc1NC(=O)CSc1nc(=O)n(CCN2CCOCC2)c2c1CCC2	/	0%	-7%
31	COc1ccc2oc(=O)c(C(=O)NCCc3c(C)[nH]c4ccc(Br)cc34)cc2c1	-18%	-2%	2%
32	Cn1c(C(=O)NCc2cccs2)cc2oc3ccccc3c21	?	5%	32µM*
33	Cc1cc(-c2ccccc2)nc2[n+]1CCN2C	5.2µM*	0%	28µM*
34	C=C[C@@H]1c2cc(C)ccc2N(S(=O)(=O)c2ccc(C)cc2)[C@H](c2ccc(C(C)(F)F)cc2)C1(C#N)C#N	/	/	0%
35	CCCCCN(C(=O)CCC(=O)OCc1ccc(C(C)(C)C)cc1)c1c(N)n(CCCC)c(=O)[nH]c1=O	13µM*	3%	2%
36	Cc1cccc(C)c1Nc1c(-c2ccsc2)nc2cccc(C)n12	?	?	35µM*

cpd	p53 reactivation	miR-21 FLuc	A549 viability
25	14%	-6%	-16%
26	/	8%	-14%
27	/	-4%	-4%
28	/	28%	-10%
29	/	-2%	5%
30	/	4%	7%
31	/	-3%	-8%
32	2%	-7%	0%
33	-1%	4%	-15%
34	/	/	/
35	-3%	0%	-12%
36	/	-12%	-14%

Profiles as entered above. Order of values: Nrf2 block | Nrf2 ARE act | ClpP mod | p53 reactivation | miR-21 FLuc | A549 viability
Shown for C=C[C@@H]1c2cc(C)ccc2N(S(=O)(=O)c2ccc(C)cc2)[C@H](c2ccc(C(C)(F)F)cc2)C1(C#N)C#N → / | / | 0% | / | / | /
Shown for COc1ccc2oc(=O)c(C(=O)NCCc3c(C)[nH]c4ccc(Br)cc34)cc2c1 → -18% | -2% | 2% | / | -3% | -8%
Shown for Cn1c(C(=O)NCc2cccs2)cc2oc3ccccc3c21 → ? | 5% | 32µM* | 2% | -7% | 0%

Continuation.
cpd	molecule	Nrf2 block	Nrf2 ARE act	ClpP mod
37	Cc1cc(C)n2c(Nc3c(C)cccc3C)c(-c3ccsc3)nc2n1	9%	3%	0%
38	CCOc1ccc(CNC(=O)C2CCN(S(=O)(=O)c3ccc4c(ccn4C)c3)CC2)cc1	/	4%	-22%
39	COc1ccc(NS(=O)(=O)c2ccccc2)cc1NS(=O)(=O)c1ccccc1	-2%	/	/
40	N#CC1=C(SCC(=O)NC23CC4CC(CC(C4)C2)C3)NC(=O)C(C#N)C12CCCCC2 (stereo not given)	15µM*	1%	-2%
41	N#CC1=C(SCC(=O)NC2CC2)NC(=O)C(C#N)C12CCCCC2 (stereo not given)	-10%	0%	0%
42	COc1ccc(-c2c3c(=O)n(C)c(=O)n(C)c3cn2-c2cc(OC)ccc2OC)cc1	?	4%	28µM*
43	Cn1c(=O)c2c(-c3ccccc3)n(-c3ccccc3O)cc2n(C)c1=O	0%	0%	28µM*
44	CC(C)(C)n1nnnc1C(c1cccs1)N1CCN(c2ccccc2)CC1 (stereo not given)	23µM*	0%	-4%

cpd	p53 reactivation	miR-21 FLuc	A549 viability
37	/	4%	4%
38	/	9%	-1%
39	/	/	-5%
40	4%	25%	?
41	-2%	-7%	0%[1.84 µM]
42	-6%	-12%	5%
43	-7%	-12%	-3%
44	-4%	-1%	?
